Assay results as given in patent US10632147B2, “Methods and compositions for treating inflammatory disorders” (priority 2007, dated 2020).

System: Propionibacterium acnes
Experiment: Log10 reduction assay (suspension test) against P. acnes
Conditions: solution ≤145 ppm AFC, spray gel 40 ppm AFC

SMILES: OCl [hypochlorous acid]
- Log Reduction (5-min contact time): ≥5.67
- Test Sample Log10 (5-min contact time): ≤1
- Test Sample Survivors (5-min contact time): <10
- Log Reduction (15-sec contact time): ≥5.67
- Test Sample Log10 (15-sec contact time): ≤1
- Test Sample Survivors (15-sec contact time): <10
